Results on 61 molecules are retold here after PubChem BioAssay AID651636 (Sanford-Burnham Center for Chemical Genomics, 2012).

Chains of the proteins cited; added tags and fusions are not shown.
UniProt P32249, whole entry: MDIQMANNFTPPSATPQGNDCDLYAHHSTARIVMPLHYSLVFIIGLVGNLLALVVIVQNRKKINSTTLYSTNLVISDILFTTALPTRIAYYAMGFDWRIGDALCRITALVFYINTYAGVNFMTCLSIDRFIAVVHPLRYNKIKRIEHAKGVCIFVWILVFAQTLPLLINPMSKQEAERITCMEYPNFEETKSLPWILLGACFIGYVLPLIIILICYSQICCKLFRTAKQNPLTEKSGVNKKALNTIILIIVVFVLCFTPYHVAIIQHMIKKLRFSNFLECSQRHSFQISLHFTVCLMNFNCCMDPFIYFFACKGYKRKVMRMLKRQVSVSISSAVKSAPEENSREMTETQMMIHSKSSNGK

The list shows a part of the results, in another mix than the full data. Activity calls are given as the source filed them. No stated cut-off is given here; in the data, active means inhibition above about 38%; inactive means the rest.

The assay deals with G-protein coupled receptor 183 (Homo sapiens) (UniProt P32249). Nature of the assay: blockers of oxysterol-driven EBI2 arrestin signaling – cell-based, luminescence, 7a,25-OHC stimulation, uHTS, primary screen (AID 651636).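 Further: enzyme fragment complementation signal reports receptor beta-arrestin coupling in cells; 0% = agonist plus DMSO wells and 100% = wells without agonist.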 The following applies: EBI2 beta-arrestin recruitment, 7a,25-OHC stimulated, at 5 µM, hits give high values.
Take `COc1cc(C(=O)NCC2(N(C)C)CCCCC2)ccc1OC(F)F`: the inhibition is inactive: -0.183%.
In the case of `CCOC(=O)N1CCC(Nc2cccc(C)c2)CC1`, the inhibition was inactive: 2.3%.
With `O=c1[nH]c2ccccc2n1C1CCN(C(c2cccc3ccccc23)c2nnnn2C2CCCC2)CC1` (stereo unspecified) the figure was inactive: 25%; with `O=c1[nH]c2ccccc2n1C1CCN(C(c2ccccc2)c2nnnn2C2CCCCC2)CC1` (stereo unspecified), inactive: 6.06%; with `CCOC(=O)N1CCC(Nc2ccc(F)cc2)CC1`, inactive: 4.19%.
With `COc1ccc(NC2CCN(CCc3ccccc3)CC2)c(OC)c1`, the inhibition is inactive: -3.81%.
With `O=C(NCC1(N2CCCCC2)CCCCC1)c1ccc(F)cc1`, the inhibition is inactive: 1.71%.
As for `CCCCOc1ccc(C(=O)NCC2(N3CCOCC3)CCCCC2)cc1`, the inhibition is inactive: 3.6%.
Consider `O=P1(N(CCCl)CCCl)SCCCS1`, for which the inhibition is inactive: 0.873%.
With `CCCCn1nnnc1C(c1cc2ccccc2o1)N1CCC(n2c(=O)[nH]c3ccccc32)CC1` (stereo unspecified) the figure was inactive: 13.7%; with `O=C1CCN(Cc2ccccc2)CC1`, inactive: -10.2%; with `CC(C)(C)n1nnnc1C(c1ccccc1)N1CCC(n2c(=O)[nH]c3ccccc32)CC1` (stereo unspecified), inactive: 11.5%.
As for `CCOc1ccc(C)cc1CN(CCCl)CCCl`, the inhibition is inactive: 12.5%.
Turning to `COc1ccc(Cl)cc1C(=O)NCC1(N2CCOCC2)CCCCC1`, the inhibition is inactive: -0.55%.
Consider `O=c1[nH]c2ccccc2n1C1CCN(C(c2cc3ccccc3o2)c2nnnn2C2CCCCC2)CC1` (stereo unspecified), for which the inhibition is inactive: 14.7%.
As for `O=C(OC1CN2CCC1CC2)C1c2ccccc2Oc2ccccc21` (stereo unspecified), the inhibition is inactive: 9%.
Turning to `N#CC1(Nc2ccccc2)CCN(Cc2ccccc2)CC1`, the inhibition was inactive: 2.56%.
In the case of `O=C(NCC1(N2CCCCC2)CCCCC1)c1ccc(Cl)s1`, the inhibition was inactive: 1.24%.
`CCCCn1nnnc1C(c1ccc(OC)cc1)N1CCC(n2c(=O)[nH]c3ccccc32)CC1` (stereo unspecified): the inhibition is inactive: 5.03%.
Then `CCOC(=O)N1CCC(Nc2ccc(OC)cc2)CC1`, with inactive: -6.3%; and `Cc1cc(C)cc(N(C(=O)c2ccccc2)C2CCN(C(=O)OC(C)(C)C)CC2)c1`, with inactive: -9.59%; and `O=c1[nH]c2ccccc2n1C1CCN(C(c2ccccc2OC(F)(F)F)c2nnnn2C2CCCCC2)CC1` (stereo unspecified), with inactive: 17.7%.
Regarding `O=C(NCC1(N2CCCCC2)CCCCC1)c1ccc(Cl)nc1`, the inhibition was inactive: -7.85%.
Consider `O=C(NCC1(N2CCOCC2)CCCCC1)c1cc2ccccc2o1`, for which the inhibition is inactive: 9.24%.
For `Cc1cccc(NC2(C#N)CCN(Cc3ccccc3)CC2)c1`, the inhibition is inactive: 5.27%.
Regarding `CSc1ccccc1C(=O)NCC1(N2CCCCC2)CCCCC1`, the inhibition was inactive: -4.22%.
With `CCC(c1nnnn1C1CCCC1)N1CCC(n2c(=O)[nH]c3ccccc32)CC1` (stereo unspecified), the inhibition was inactive: 6.55%.
With `COc1ccc(C(=O)NCC2(N3CCCCC3)CCCCC2)c(OC)c1OC` the figure was inactive: -1.83%; with `CC(C)(C)OC(=O)N1CCC(N(C(=O)c2ccccc2)c2ccc(F)cc2)CC1`, inactive: 1.79%.
`COc1ccc(C(=O)NCC2(N3CCCCC3)CCCCC2)cc1`: the inhibition was inactive: -6.02%.
On to `CCCCn1nnnc1C(c1cccs1)N1CCC(n2c(=O)[nH]c3ccccc32)CC1` (stereo unspecified), for which the inhibition was inactive: -0.635%.
As for `CCCCn1nnnc1C(CC)N1CCC(n2c(=O)[nH]c3ccccc32)CC1` (stereo unspecified), the inhibition is inactive: 3.79%.
With `O=C(NCC1(N2CCCCC2)CCCCC1)c1cccs1`, the inhibition was inactive: -0.475%.
Then `O=C(NCC1(N2CCCCC2)CCCCC1)c1ccc(=O)[nH]c1`, with inactive: -4.75%.
With `COc1ccc(C(c2nnnn2C2CCCC2)N2CCC(n3c(=O)[nH]c4ccccc43)CC2)cc1` (stereo unspecified), the inhibition is inactive: 13.2%.
With `CCCOc1ccc(C(=O)NCC2(N(C)C)CCCCC2)cc1OC` the figure was inactive: -6.07%; with `Cc1ccc(C(=O)NCC2(N(C)C)CCCCC2)o1`, inactive: -3.93%.
On to `O=C(NCC1(N2CCCCC2)CCCCC1)c1cncc(Br)c1`, for which the inhibition was inactive: -13.2%.
With `CN1CCC(Nc2cccc(F)c2)CC1` the figure was inactive: -4.21%.
On to `CCC(c1nnnn1C(C)(C)C)N1CCC(n2c(=O)[nH]c3ccccc32)CC1` (stereo unspecified), for which the inhibition is inactive: 2.13%.
As to `O=C(NCC1(N2CCOCC2)CCCCC1)c1cc(F)c(F)cc1Cl`, the inhibition was inactive: -0.832%.
Then `COc1cc(OC)c(C(=O)NCC2(N(C)C)CCCCC2)cc1OC`, with inactive: -21.6%; and `CCCCn1nnnc1C(c1ccnc2ccccc12)N1CCC(n2c(=O)[nH]c3ccccc32)CC1` (stereo unspecified), with inactive: 7.19%; and `CC(C)c1ccc(NC2CCN(C(=O)OC(C)(C)C)CC2)cc1`, with inactive: 4.38%.
`CCCCn1nnnc1C(c1ccccc1OC(F)(F)F)N1CCC(n2c(=O)[nH]c3ccccc32)CC1` (stereo unspecified): the inhibition was inactive: 28.7%.
As to `CN(C)c1cccc(C(=O)NCC2(N3CCCCC3)CCCCC2)c1`, the inhibition was inactive: 0.688%.
With `COc1ccc(CN(CCCl)CCCl)cc1Cl`, the inhibition was inactive: -15.1%.
Regarding `O=C(NCC1(N2CCOCC2)CCCCC1)c1cc(=O)[nH]c2ccccc12`, the inhibition was inactive: -1.99%.
As to `COc1cc(C(=O)NCC2(N3CCCCC3)CCCCC2)ccc1OC(F)F`, the inhibition was inactive: -7.1%.
On to `CCCCn1nnnc1C(c1cccc2ccccc12)N1CCC(n2c(=O)[nH]c3ccccc32)CC1` (stereo unspecified), for which the inhibition is inactive: 24.1%.
Then `COc1ccc(NC2CCN(C(=O)OC(C)(C)C)CC2)cc1`, with inactive: 6.6%.
Regarding `CC(C)c1ccc(C(=O)NCC2(N3CCOCC3)CCCCC2)cc1`, the inhibition was inactive: -6.42%.
Take `CN1CCN(CCOC(=O)C(O)(c2ccccc2)c2ccccc2)CC1`: the inhibition is inactive: -9.42%.
For the molecule `O=C(NCC1(N2CCCCC2)CCCCC1)c1cccc(C(F)(F)F)c1`, the inhibition was inactive: -7.25%.
With `N#CC1(Nc2ccccc2)CCN(CCc2ccccc2)CC1`, the inhibition was inactive: -9.49%.
For `O=c1[nH]c2ccccc2n1C1CCN(C(c2ccccc2OC(F)(F)F)c2nnnn2C2CCCC2)CC1` (stereo unspecified), the inhibition is inactive: 16.9%.
With `CCN1CCC(Nc2ccc(Cl)cc2)CC1`, the inhibition was inactive: 6.7%.
With `CSc1ccc(C(=O)NCC2(N3CCOCC3)CCCCC2)cc1`, the inhibition was inactive: -8.43%.
`O=C(NCC1(N2CCCCC2)CCCCC1)c1cccc([N+](=O)[O-])c1`: the inhibition is inactive: 1.97%.
On to `O=C(NCC1(N2CCCCC2)CCCCC1)c1ccc(OC(F)F)cc1`, for which the inhibition was inactive: -2.77%.
Then `CC(C)(C)n1nnnc1C(c1ccccc1OC(F)(F)F)N1CCC(n2c(=O)[nH]c3ccccc32)CC1` (stereo unspecified), with inactive: 8.84%.
